The list shows a part of the results, in another mix than the full data. Activity calls are given as the source filed them.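 The calls were made as follows: active = mean replicate activation of at least 50% with a set share of replicates each reaching 50%; inconclusive = only one of those two conditions met; inactive = mean below 50% and too few replicates reaching it.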
Assay: HSF-1 response element luciferase induction – NIH3T3-HGL cells, MG132 stress, luminescence, single point, primary screen (AID 504408);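 also: 0% = median of the neutral control wells and 100% = twice that signal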
Conditions: NIH3T3-HGL HSF-1 luciferase reporter, MG132, 8 h; at 9 µM; active compounds read high; 100% = twice DMSO control signal

Structure (SMILES)	activation
O=C(/C=C/c1ccccc1)OC1CN2CCC1CC2 (stereo not given)	inactive: -11.5%
CN(C)C1(CNC(=O)c2ccc(S(C)(=O)=O)cc2)CCCCC1	inactive: -1.56%
CC1CCC(C(C)C)C(OP(=O)(Nc2ccccn2)c2ccccc2)C1 (stereo not given)	inactive: 6.33%
Cc1ccc(C(=O)OC2CN3CCC2CC3)cc1 (stereo not given)	inactive: -2.85%
Cc1nn(-c2ccccc2)c2c1P(=O)(N1CCOCC1)N(C)C(c1ccccc1)=N2 (stereo not given)	inactive: 1.32%
Cc1ccc(OCC(=O)OC2CN3CCC2CC3)cc1 (stereo not given)	inactive: -1.56%
O=[As](O)(c1cccs1)c1cccs1	inactive: 35%
Nc1cccc([As](=O)(O)c2ccccc2)c1	inactive: 4.31%
O=P1(Nc2ncccn2)COc2ccccc2OC1	inactive: -3.84%
CC(C)(C)C(=O)NC(Sc1ncccn1)C(Cl)(Cl)Cl (stereo not given)	inactive: -13.5%
Clc1n[nH]nc1-c1nn[nH][15n]1	inactive: 1.48%
CN(CCCl)Cc1cc(Cl)c(NC2=NCCN2)c(Cl)c1	inactive: -16.6%
CCOP(=O)(Nc1ccc(C)cn1)OCC	inactive: 5.76%
CCOP(=O)(NC(=NC(C)c1ccccc1)NC(C)c1ccccc1)OCC (stereo not given)	inactive: 19.5%
O=P1(Nc2ccccn2)COc2ccccc2OC1	inactive: -5.05%
CCC1=CC2Cc3nc4ccc(Cl)cc4c(N)c3C(C1)C2 (stereo not given)	inactive: 5.05%
CC1(CBr)Cn2c(nc3ccccc3c2=O)S1 (stereo not given)	inactive: 1.53%
O=[As](O)(c1ccccc1Br)c1ccccc1Br	inactive: 2.86%
CC(C)/C=N\N=C(\N)N[N+](=O)[O-]	inactive: -1.34%
CN(C(=O)Cc1ccc(Cl)c(Cl)c1)[C@@H]1CCCC[C@H]1N1CCCC1	inactive: -6.18%
COc1ccccc1CNC(=O)COC(=O)C(O)(c1ccccc1)c1ccccc1	inactive: -10.8%
O=[As](O)(c1cccc(O)c1)c1cccc(O)c1	inactive: -8.88%
Cc1cccc(OCC(=O)OC2CN3CCC2CC3)c1 (stereo not given)	inactive: 0.337%
CS(=O)(=O)c1ccc(Cl)c(NC(=O)COC(=O)C(O)(c2ccccc2)c2ccccc2)c1	inactive: -16%
COc1cc(C(=O)NCC2(N3CCOCC3)CCCCC2)cc(Cl)c1OC(C)C	inactive: -5.88%

Structure (SMILES)	activation
O=[As](O)(O)c1cccnc1	inactive: -8.25%
O=C(OC1CN2CCC1CC2)c1ccc(Cl)cc1 (stereo not given)	inactive: 12.8%
CCOP(=O)(Nc1cccc2ccccc12)OCC	inactive: -16.1%
COc1cc(C2NCCC3(OCCO3)C2(C)C)cc(OC)c1OC (stereo not given)	inactive: -4.93%
CCCOP(=S)(Nc1nc(N)cc(=O)[nH]1)OCCC	inactive: -7.34%
Cc1ccc(NCCc2c([N+](=O)[O-])cc([N+](=O)[O-])cc2[N+](=O)[O-])cc1	inactive: 20.2%
Nc1cccc2c([As](=O)(O)O)cccc12	inactive: -9.1%
Nc1ccccc1[As](=O)(O)c1ccccc1	inactive: 8.64%
O=C(O)COc1ccc([As](=O)(O)O)cc1[N+](=O)[O-]	inactive: 3.11%
CS(=O)(=O)c1cc([N+](=O)[O-])c2no[n+]([O-])c2c1	inactive: -11.6%
O=P(Nc1nccs1)(c1ccccc1)c1nc2ccccc2s1 (stereo not given)	inactive: -2.65%
O=P(Nc1nccs1)(Oc1ccccc1)Oc1ccccc1	inactive: -4.43%
CCOP1(=S)c2c(C)nn(CCC#N)c2N=C(c2ccccc2F)N1C (stereo not given)	inactive: 32.8%
CN(C(=O)Cc1ccc(Cl)c(Cl)c1)[C@H]1CC[C@@]2(CCCO2)C[C@@H]1N1CCCC1	inactive: -2.05%
CN(C)C(=O)c1cc([N+](=O)[O-])cc2c1-c1c(cc([N+](=O)[O-])cc1[N+](=O)[O-])C2=O	inactive: -2.02%
O=[N+]([O-])c1ccc2c(c1)nnn2O	inactive: 29.3%
CCOP1(=S)c2c(C)nn(CCC#N)c2N=C(c2ccc(F)cc2)N1C (stereo not given)	inactive: 1.33%
CN(C(=O)Cc1ccccc1)[C@@H]1CC[C@]2(CCCO2)C[C@H]1N1CCCC1	inactive: 13.2%
N#CCCN(C(=O)COC(=O)C(O)(c1ccccc1)c1ccccc1)c1ccc(F)cc1	inactive: 4.21%
NC(=O)Nc1ccc([As](=O)(O)O)cc1	inactive: -5.01%
Cc1ccc2nc3c(c(C)c2c1)CC(C(Cl)Cl)S3 (stereo not given)	inactive: 42%
Cc1ccc(OP(=O)(Nc2ccc([N+](=O)[O-])cn2)Oc2ccc(C)cc2)cc1	inactive: 2.88%
C[As](=O)(O)c1cccc(C(=O)O)c1	inactive: -1.37%
O=[As](O)(c1ccc(O)cc1)c1ccccc1O	inactive: 0.309%
O=[N+]([O-])c1cc([N+](=O)[O-])c(-c2ccn[nH]2)s1	inactive: 48%

Structure (SMILES)	activation
CCN(CC)C(=S)SC(NC=O)C(Cl)(Cl)Cl (stereo not given)	inactive: -22.7%
CC(C)NC(=O)NP(=O)(Oc1ccccc1)Oc1ccccc1	inactive: 0.905%
CC(C)c1ccc(OP(=O)(Nc2ccccn2)Oc2ccccc2F)cc1 (stereo not given)	inactive: 0.732%
ClCCSc1nnc(-c2cccnc2)o1	inactive: 8.05%
COc1cc(I)ccc1[As](=O)(O)O	inactive: 3.77%
COc1ccc2nc(NP(=O)(c3ccccc3)c3ccccc3)sc2c1	inactive: -5.94%
Cc1cc(=O)[nH]c(N[N+](=O)[O-])n1	inactive: 9.24%
O=C(OC1CN2CCC1CC2)C12CC3CC(CC(C3)C1)C2 (stereo not given)	inactive: -12.5%
Cc1c2c(nc3ccccc13)SC(C(Cl)Cl)C2 (stereo not given)	inactive: 24.7%
COc1ccc(N/C(=N/P(=O)(N2CCOCC2)N2CCOCC2)N2CCOCC2)cc1	inactive: 5.68%
O=C(Nc1ccncc1[N+](=O)[O-])c1ccc([N+](=O)[O-])cc1[N+](=O)[O-]	inactive: 2.37%
O=C(COc1ccccc1)OC1CN2CCC1CC2 (stereo not given)	inactive: 3.25%
COP1(=S)c2c(C)nn(CCC#N)c2N=C(c2ccc(F)cc2)N1C (stereo not given)	inactive: 8.02%
CCC(C)N(CC(C)C)C(=S)SC(NC(C)=O)C(Cl)(Cl)Cl (stereo not given)	inactive: 34.7%
CCOC(=O)c1ccc(NC(=O)C(C)(CCl)SC)cc1 (stereo not given)	inactive: 4.46%
O=C(OC1CN2CCC1CC2)c1cccc([N+](=O)[O-])c1 (stereo not given)	inactive: -8.91%
Cc1cc(SC(NC(=O)c2ccccc2)C(Cl)(Cl)Cl)nc(C(C)C)n1 (stereo not given)	inactive: -1.6%
CCCCOc1ccc(C(=O)NCC2(N3CCCCC3)CCCCC2)cc1OC	inactive: 7.25%
CCOC(=O)Nc1ccc([As](=O)(O)O)c(O)c1	inactive: 0.654%
O=[N+]([O-])c1ccc(Nc2ccc(Oc3ccc([N+](=O)[O-])cc3[N+](=O)[O-])cc2)c([N+](=O)[O-])c1	inactive: 2.56%
O=P(Nc1ccccn1)(c1cccc2ccccc12)c1cccc2ccccc12	inactive: -0.357%
Cc1cc(SC(NC=O)C(Cl)(Cl)Cl)ncn1 (stereo not given)	inactive: 3.88%
CCOC(=O)Nc1cccc([As](=O)(O)O)c1	inactive: -8.65%
O=C(Nc1cc([As](=O)(O)O)ccc1O)c1ccccc1	inactive: 14.1%
O=[N+]([O-])c1cccc(NC2=NCC(CBr)S2)c1 (stereo not given)	inactive: 12.4%

Structure (SMILES)	activation
O=C(O)CNc1ccc([As](=O)(O)O)cc1	inactive: -2.59%
CC(C)(C)C(=O)NC(Sc1ccncn1)C(Cl)(Cl)Cl (stereo not given)	inactive: 2.2%
O=[N+]([O-])c1ncn(CCn2ncnc2[N+](=O)[O-])n1	inactive: -8.96%
O=[N+]([O-])c1cccc2n[nH]nc12	inactive: 6.99%
CC(=O)N1C2C3N(C(C)=O)C1C1N(C(C)=O)C(C(N1C(C)=O)N3C(C)=O)N2C(C)=O	inactive: -7.92%
CCc1nc2c(n1)c1c(non1O)c1c2no[n+]1[O-]	active: 149%
O=[N+]([O-])c1cc([N+](=O)[O-])c(CCNc2ccccc2)c([N+](=O)[O-])c1	inactive: 6.42%
Cc1ccc(NP(=O)(Oc2ccccc2)Oc2ccccc2)nc1	inactive: 17.8%
COc1ccc(C2=NCC(CBr)S2)cc1 (stereo not given)	inactive: -14.5%
CN(C)C(=O)OCCc1n(C)cc[n+]1C	inactive: -18.8%
CC(C)=N/N=C(\N)N[N+](=O)[O-]	inactive: 1.57%
CC1CCN(C(=O)Oc2c(Cl)cc(Cl)c3cccnc23)CC1	inactive: 12.6%
C[N+]1=C2C=CC=CC=C2SC12C([N+](=O)[O-])=CC([N+](=O)[O-])=C[C-]2[N+](=O)[O-] (stereo not given)	inactive: 22.5%
Nc1ccc([As](=O)(O)c2ccc(N)cc2)cc1	inactive: -3.35%
CCN(/C(=N/P(=O)(N1CCOCC1)N1CCOCC1)N1CCOCC1)c1ccc(OC)cc1	inactive: 18.9%
Cc1ccc(OP(=O)(Nc2nccs2)Oc2ccc(C)cc2)cc1	inactive: 12.8%
COc1ccccc1OP(=O)(Nc1ccc(C)cn1)Oc1ccccc1OC	inactive: 13.7%
Clc1ccc(Cl)c(NC2=NCC(CBr)S2)c1 (stereo not given)	inactive: -3.76%
CN1CCCC(OC(=O)C(c2ccccc2)c2ccccc2)C1 (stereo not given)	inactive: -4.6%
NC(=O)c1cc([N+](=O)[O-])cc([N+](=O)[O-])c1N	inactive: -8.67%
Cc1ccc(N/C(=N/P(=O)(N2CCOCC2)N2CCOCC2)N2CCOCC2)cc1	inactive: 4.97%
CC(C)CC(=O)NC(Sc1ccc(Cl)cc1)C(Cl)(Cl)Cl (stereo not given)	inactive: 3.11%
Nc1cc(N)c2nonc2c1[N+](=O)[O-]	inactive: 10.5%
Cc1c2non([O-])c-2c(C)[n+](=O)[n+]1[O-]	inactive: -4.8%
O=C(NC(Sc1ccncn1)C(Cl)(Cl)Cl)c1ccccc1 (stereo not given)	inactive: 4.14%

Reference: PubChem BioAssay AID504408 (Broad Institute, 2011)
